Literature values, collected in US8895522B2, “Composition and method for the prevention, treatment and/or alleviation of an inflammatory disease” (Index Pharmaceuticals AB, priority 2005, dated 2014).

System: corticosteroid refractory ulcerative colitis patients
Details: i.v., cited from earlier work

B1: INF-beta: interferon-beta given i.v. in the cited ulcerative colitis pilot study (protein, UniProt P01574 22-187, looked up)
Interferon beta: MSYNLLGFLQRSSNFQCQKLLWQLNGRLEYCLKDRMNFDIPEEIKQLQQFQKEDAALTIYEMLQNIFAIFRQDSSSTGWNETIVENLLANVYHQINHLKTVLEEKLEKEDFTRGKLMSSLHLKRYYGRILHYLKAKEYSHCAWTIVRVEILRNFYFINRLTGYLRN
In the case of B1, the patients in remission (22 of the 25 patients, within 3 weeks, all on corticosteroids) is given as 88% and the “mean length of response” value (corticosteroid refractory ulcerative colitis) is given as 13 months.
